Test results as given in patent publication US12662491B2 (Redona Therapeutics, Inc., priority 2020, dated 2026).

The chains behind the UniProt entries cited, without tags or fusion partners. Residues count along the entry.
UniProt Q5TAX3, 212-1420 limits assumed: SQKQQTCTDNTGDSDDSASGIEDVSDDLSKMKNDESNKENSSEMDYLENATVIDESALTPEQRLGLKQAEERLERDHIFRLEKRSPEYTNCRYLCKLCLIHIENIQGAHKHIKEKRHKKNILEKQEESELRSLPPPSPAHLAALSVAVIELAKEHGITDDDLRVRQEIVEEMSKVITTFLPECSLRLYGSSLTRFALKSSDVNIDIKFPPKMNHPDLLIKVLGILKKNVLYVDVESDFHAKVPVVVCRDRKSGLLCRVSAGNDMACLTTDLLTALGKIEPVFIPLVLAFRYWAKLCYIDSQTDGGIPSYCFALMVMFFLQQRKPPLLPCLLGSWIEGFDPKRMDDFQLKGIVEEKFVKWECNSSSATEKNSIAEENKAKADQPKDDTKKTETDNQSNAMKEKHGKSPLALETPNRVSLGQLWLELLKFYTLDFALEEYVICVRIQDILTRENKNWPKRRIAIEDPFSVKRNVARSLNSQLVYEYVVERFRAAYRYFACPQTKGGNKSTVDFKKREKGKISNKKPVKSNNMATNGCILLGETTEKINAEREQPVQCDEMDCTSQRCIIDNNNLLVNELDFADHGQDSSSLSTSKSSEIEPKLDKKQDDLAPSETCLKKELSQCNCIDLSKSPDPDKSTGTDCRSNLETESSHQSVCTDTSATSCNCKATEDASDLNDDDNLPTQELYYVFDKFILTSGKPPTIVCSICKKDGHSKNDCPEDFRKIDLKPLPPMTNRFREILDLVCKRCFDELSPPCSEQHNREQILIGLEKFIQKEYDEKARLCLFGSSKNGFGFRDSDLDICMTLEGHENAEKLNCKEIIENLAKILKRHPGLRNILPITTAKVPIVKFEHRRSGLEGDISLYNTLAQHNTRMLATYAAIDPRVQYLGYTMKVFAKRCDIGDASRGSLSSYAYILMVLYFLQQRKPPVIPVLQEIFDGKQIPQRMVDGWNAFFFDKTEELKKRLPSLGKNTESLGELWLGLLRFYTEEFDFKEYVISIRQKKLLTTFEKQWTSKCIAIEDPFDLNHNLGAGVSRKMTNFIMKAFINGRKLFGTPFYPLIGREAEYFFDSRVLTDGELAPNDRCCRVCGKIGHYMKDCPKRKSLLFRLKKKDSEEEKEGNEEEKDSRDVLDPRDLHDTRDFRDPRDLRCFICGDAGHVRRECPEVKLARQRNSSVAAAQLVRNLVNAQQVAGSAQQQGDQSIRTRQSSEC

Each compound was assayed against Zcchc11 enzyme (Homo sapiens, UniProt Q5TAX3) (assay: TUTase assay (Zcchc11 assay, Lin28a-dependent polyuridylation of pre-let-7)). Conditions: read-out: Potency Lin28a-dep Z11 IC50; Lin28a-dependent Zcchc11 (Z11) TUTase activity.
Method: The purpose of the Zcchc11 assay is to determine compound potency against Zcchc11 enzyme through the measurement of IC50. Compound inhibition is measured as a function of polyuridine tails added to RNA substrates in the presence of active TUTase, UTP, and inhibitor. The Zcchc11 assay was done in a black, non-binding, 384 well plate (Corning #3575). All steps were performed at room temperature. For a typical assay, a 29 ul aliquot of assay buffer (50 mM HEPES pH 7.3, 150 mM KCl, 5 mM MgCl2, 10 mM DTT, 0.01% Triton X-100, 40 U/ml RNAsin (Promega)) containing LIN28A protein (final concentration: 10 nM) is added to each well. Next, 1 ul of compound in 100% DMSO is transferred from a compound dilution plate in which the compound is serially diluted. Next, 10 ul of a 5× mix of Zcchc11 and RNA substrate (5′-fluorescein labeled pre-let-7 miRNA (Dharmacon)) is added (final concentrations: 0.2 nM and 2 nM, respectively). The plate is placed on a plate shaker for 30 seconds to produce mixing, then incubated for 30 minutes. Next, 10 ul of a 5× mix of UTP and the quenching probe (3′-rhodamine labeled A20, polyadenosine nucleotide, (IDT)) is added (final concentrations: 5 uM and 4 nM, respectively). The plate is immediately placed in a Biotek Cytation 5 plate reader, and the time-dependent decrease in fluorescein fluorescence resulting from annealing of the A20 probe to polyuridine tails is recorded, using the kinetics mode of the reader. Reaction rates are obtained using linear fits to the early portion of progress curves. IC50 values are calculated using a four parameter fit with 100% enzyme activity determined from the DMSO control and 0% activity from control samples lacking UTP.
The LIN28A protein was expressed in and purified from E. coli, strain Rosetta II (Novagen). The entire coding sequence of the human, wild-type protein was cloned into expression vector pMAL (NEB), down-stream from a maltose-binding protein tag. The linker sequence contained a TEV protease cleavage site. The protein was purified from bacterial extracts using an MBP-Trap column (GE Healthcare Life Sciences), followed by tag cleavage and removal of the tag by ion-exchange chromatography. When necessary, contaminating bacterial RNA was removed using the procedure describe by Faehnle C R. et al. (2017) Multi-domain utilization by TUT4 and TUT7 in control of let-7 biogenesis. Nat Struct Mol Biol, 24:658-665.
The Zcchc11 protein was expressed in and purified from HEK293 cells. A truncated protein comprising residues 212-1420 of the human sequence was cloned into expression vector pTT5 (Viva Biotech) down-stream from a maltose-binding protein tag. The linker sequence contained a TEV protease cleavage site, and a FLAG tag was added to the carboxyl terminus of the protein. The protein was purified from cell extracts using an MBP-Trap column (GE Healthcare Life Sciences), followed by tag cleavage and further enrichment of the full length construct using anti-FLAG affinity media (Sigma Aldrich).
“+” represents an IC50 value that is greater than 50 μM; “++” represents an IC50 value that is greater than 10 μM and equal to or less than 50 μM; “+++” represents an IC50 value that is greater than 1 μM and equal to or less than 10 μM; and “++++” represents an IC50 value that is equal to or less than 1 μM.

IC50, < 1000 nM:
Cn1cc(-n2cc(C(=O)O)c(=O)c3cc(C#N)c(N4CCC[C@@H]4COc4ncccc4Cl)nc32)cn1 (racemic)
CN(C)c1ccc(-n2cc(C(=O)O)c(=O)c3cc(Cl)c(N4CCC[C@@H]4COc4ncccc4OCCN)cc32)cn1 [Example 53, 7-[(2R)-2-([[3-(2-Aminoethoxy)pyridin-2-yl]oxy]methyl)pyrrolidin-1-yl]-6-chloro-1-[6-(dimethylamino)pyridin-3-yl]-4-oxoquinoline-3-carboxylic acid]
Cn1cc(-n2cc(C(=O)O)c(=O)c3cc(C#N)c(N4CCC[C@@H]4COc4ncccc4Cl)cc32)cn1 (racemic)
CN(C)C1CN(c2ccc(-n3cc(C(=O)O)c(=O)c4cc(Cl)c(N5CCC[C@@H]5COc5nc(N)ccc5Cl)cc43)cn2)C1 (racemic)
CN(C)C1CN(c2ccc(-n3cc(C(=O)O)c(=O)c4cc(Cl)c(N5CCC[C@@H]5COc5nccc6[nH]ccc56)cc43)cn2)C1
